molecular target: T1, OX1 (Homo sapiens, UniProt O43613); test: Orexin receptor cell-based functional assay, [Ca2+]i by FLIPR, CHO-OX1 cells; conditions: CHO-OX1 cells, [Ca2+]i by FLIPR, antagonist dose-range 0.1 nM-10 μM, EC90 of OXA; read-out: OX1
T1 construct: expressed in transfected cells; host or cells: CHO (CHO-OX1, kept under selection antibiotic)

Amino acid sequences for entries named in this document (tags omitted).
UniProt O43613, whole entry: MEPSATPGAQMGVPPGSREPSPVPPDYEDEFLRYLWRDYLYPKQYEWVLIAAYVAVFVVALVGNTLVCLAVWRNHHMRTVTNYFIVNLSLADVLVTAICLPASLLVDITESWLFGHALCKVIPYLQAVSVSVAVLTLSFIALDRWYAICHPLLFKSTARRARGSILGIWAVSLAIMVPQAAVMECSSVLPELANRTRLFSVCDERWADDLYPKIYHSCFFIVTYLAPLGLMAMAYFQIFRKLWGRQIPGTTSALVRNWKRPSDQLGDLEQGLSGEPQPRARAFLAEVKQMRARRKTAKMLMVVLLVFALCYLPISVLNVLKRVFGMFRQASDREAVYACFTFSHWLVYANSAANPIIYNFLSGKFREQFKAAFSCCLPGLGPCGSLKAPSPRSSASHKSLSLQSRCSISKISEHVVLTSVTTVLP

| SMILES | IC50 |
| --- | --- |
| Cc1ccc(-n2nccn2)c(C(=O)N2CCC[C@@H](C)[C@H]2CNc2ncccc2C#N)c1 [Example A90, 2-((((2S,3R)-3-Methyl-1-(5-methyl-2-(2H-1,2,3-triazol-2-yl)benzoyl)piperidin-2-yl)methyl)amino)nicotinonitrile] | 360 nM |
| Cc1ccc(-c2ccc(C)cc2C(=O)N2CCC[C@@H](C)[C@H]2CNc2ccc(C(F)(F)F)cn2)nc1 [Example A118, ((2S,3R)-3-Methyl-2-(((5-(trifluoromethyl)pyridin-2-yl)amino)methyl)piperidin-1-yl)(5-methyl-2-(5-methylpyridin-2-yl)phenyl)methanone] | 15 nM |
| COc1ccc(NC[C@@H]2[C@H](C)CCCN2C(=O)c2cc(C)ccc2-n2nccn2)nc1 [Example A126, ((2S,3R)-2-(((5-Methoxypyridin-2-yl)amino)methyl)-3-methylpiperidin-1-yl)(5-methyl-2-(2H-1,2,3-triazol-2-yl)phenyl)methanone] | 43 nM |
| Cc1ccc(-n2ccc(C)n2)c(C(=O)N2CCC[C@@H](C)[C@H]2CNc2ncc(C#N)cn2)c1 [Example A131, 2-((((2S,3R)-3-Methyl-1-(5-methyl-2-(3-methyl-1H-pyrazol-1-yl)benzoyl)piperidin-2-yl)methyl)amino)pyrimidine-5-carbonitrile] | 20 nM |
| Cc1ccc(-c2ccccn2)c(C(=O)N2CCC[C@@H](C)[C@H]2CNc2nnc(C(F)(F)F)s2)c1 [Example A151, ((2S,3R)-3-Methyl-2-(((5-(trifluoromethyl)-1,3,4-thiadiazol-2-yl)amino)methyl)piperidin-1-yl)(5-methyl-2-(pyridin-2-yl)phenyl)methanone] | 83 nM |
| Cc1ccc(-n2cccn2)c(C(=O)N2CCC[C@@H](C)[C@H]2CNc2ccc(C#N)cn2)c1 [Example A155, 6-((((2S,3R)-3-Methyl-1-(5-methyl-2-(1H-pyrazol-1-yl)benzoyl)piperidin-2-yl)methyl)amino)nicotinonitrile] | 500 nM |
| Cc1ccc(-n2nccn2)c(C(=O)N2CCC[C@@H](C)[C@H]2CNc2nccc(C(F)(F)F)n2)c1 [Example A163, ((2S,3R)-3-Methyl-2-(((4-(trifluoromethyl)pyrimidin-2-yl)amino)methyl)piperidin-1-yl)(5-methyl-2-(2H-1,2,3-triazol-2-yl)phenyl)methanone] | 71 nM |
| Cc1ccc(-n2cccn2)c(C(=O)N2CCC[C@@H](C)[C@H]2CNc2ccc(C(F)(F)F)nn2)n1 [Example A164, ((2S,3R)-3-Methyl-2-(((6-(trifluoromethyl)pyridazin-3-yl)amino)methyl)piperidin-1-yl)(6-methyl-3-(1H-pyrazol-1-yl)pyridin-2-yl)methanone] | 75 nM |
| Cc1ccc(-c2ccccn2)c(C(=O)N2CCC[C@@H](C)[C@H]2CNc2ccc(C(F)(F)F)nn2)n1 [Example A165, ((2S,3R)-3-methyl-2-(((6-(trifluoromethyl)pyridazin-3-yl)amino)methyl)piperidin-1-yl)(6′-methyl-[2,3′-bipyridin]-2′-yl)methanone] | 27 nM |
| Cc1ccc(-n2nccn2)c(C(=O)N2CCC[C@@H](C)[C@H]2CNc2ncc(F)cc2F)c1 [Example A172, ((2S,3R)-2-(((3,5-Difluoropyridin-2-yl)amino)methyl)-3-methylpiperidin-1-yl)(5-methyl-2-(2H-1,2,3-triazol-2-yl)phenyl)methanone] | 64 nM |
| Cc1ccc(-n2nccn2)c(C(=O)N2CCC[C@@H](C)[C@H]2CNc2nnc(C(F)(F)F)s2)n1 [Example A191, ((2S,3R)-3-Methyl-2-(((5-(trifluoromethyl)-1,3,4-thiadiazol-2-yl)amino)methyl)piperidin-1-yl)(6-methyl-3-(2H-1,2,3-triazol-2-yl)pyridin-2-yl)methanone] | 43 nM |
| Cc1ccc(NC[C@@H]2[C@H](C)CCCN2C(=O)c2nc(C)ccc2-n2nccn2)nc1 [Example A196, ((2S,3R)-3-Methyl-2-(((5-methylpyridin-2-yl)amino)methyl)piperidin-1-yl)(6-methyl-3-(2H-1,2,3-triazol-2-yl)pyridin-2-yl)methanone] | 17 nM |
| C[C@@H]1CCCN(C(=O)c2cc(F)ccc2-n2nccn2)[C@@H]1CNc1ncc(C(F)(F)F)cn1 [Example A207, (5-Fluoro-2-(2H-1,2,3-triazol-2-yl)phenyl)((2S,3R)-3-methyl-2-(((5-(trifluoromethyl)pyrimidin-2-yl)amino)methyl)piperidin-1-yl)methanone] | 11 nM |
| Cc1ccc(-n2nccn2)c(C(=O)N2CCC(F)(F)C[C@H]2CNc2ccc(Cl)cn2)c1 [Example A210, (S)-(2-(((5-Chloropyridin-2-yl)amino)methyl)-4,4-difluoropiperidin-1-yl)(5-methyl-2-(2H-1,2,3-triazol-2-yl)phenyl)methanone] | 140 nM |
| Cc1ccc(-n2nccn2)c(C(=O)N2CCC(F)(F)C[C@H]2CNc2ncc(C(F)(F)F)cn2)c1 [Example A211, (S)-(4,4-Difluoro-2-(((5-(trifluoromethyl)pyrimidin-2-yl)amino)methyl)piperidin-1-yl)(5-methyl-2-(2H-1,2,3-triazol-2-yl)phenyl)methanone] | 140 nM |
| Cc1ccc(-n2nccn2)c(C(=O)N2CCC[C@@H](C)[C@H]2CNc2ncc3ccc(C)cc3n2)c1 [Example A215, ((2S,3R)-3-Methyl-2-(((7-methylquinazolin-2-yl)amino)methyl)piperidin-1-yl)(5-methyl-2-(2H-1,2,3-triazol-2-yl)phenyl)methanone] | 10 nM |
| C[C@@H]1CCCN(C(=O)c2cc(F)ccc2-c2ncccn2)[C@@H]1CNc1ncc(Cl)cn1 [Example A226, ((2S,3R)-2-(((5-Chloropyrimidin-2-yl)amino)methyl)-3-methylpiperidin-1-yl)(5-fluoro-2-(pyrimidin-2-yl)phenyl) methanone] | 11 nM |
| C[C@@H]1CCCN(C(=O)c2c(F)cccc2-c2ncccn2)[C@@H]1CNc1ccc(C(F)(F)F)cn1 [Example A241, (2-Fluoro-6-(pyrimidin-2-yl)phenyl)((2S,3R)-3-methyl-2-(((5-(trifluoromethyl)pyridin-2-yl)amino)methyl)piperidin-1-yl)methanone] | 9 nM |
| C[C@@H]1CCCN(C(=O)c2cc(F)c(F)cc2-n2nccn2)[C@@H]1CNc1ccc(Cl)cn1 [Example A246, ((2S,3R)-2-(((5-Chloropyridin-2-yl)amino)methyl)-3-methylpiperidin-1-yl)(4,5-difluoro-2-(2H-1,2,3-triazol-2-yl)phenyl)methanone] | > 100 nM |
| C[C@@H]1CCCN(C(=O)c2ccc(F)cc2-n2nccn2)[C@@H]1CNc1ccc(C(F)(F)F)cn1 [Example A250, (4-Fluoro-2-(2H-1,2,3-triazol-2-yl)phenyl)((2S,3R)-3-methyl-2-(((5-(trifluoromethyl)pyridin-2-yl)amino)methyl)piperidin-1-yl)methanone] | 47 nM |

The next compounds have a lower IC50 than those just listed; values first:

| IC50 | SMILES |
| --- | --- |
| 1 nM | Cc1ccc(-n2nccn2)c(C(=O)N2CCC[C@@H](C)[C@H]2CNc2ncc(Cl)cc2F)c1 [Example A92, ((2S,3R)-2-(((5-Chloro-3-fluoropyridin-2-yl)amino)methyl)-3-methylpiperidin-1-yl)(5-methyl-2-(2H-1,2,3-triazol-2-yl)phenyl)methanone] |
| 2 nM | Cc1ccc(-n2ccc(C)n2)c(C(=O)N2CCC[C@@H](C)[C@H]2CNc2ccc(C(F)(F)F)cn2)c1 [Example A108, ((2S,3R)-3-Methyl-2-(((5-(trifluoromethyl)pyridin-2-yl)amino)methyl)piperidin-1-yl)(5-methyl-2-(3-methyl-1H-pyrazol-1-yl)phenyl)methanone] |
| 4 nM | Cc1ccc(-n2nccn2)c(C(=O)N2CCC[C@@H](C)[C@H]2CNc2ccc(C3CC3)cn2)c1 [Example A136, ((2S,3R)-2-(((5-Cyclopropylpyridin-2-yl)amino)methyl)-3-methylpiperidin-1-yl)(5-methyl-2-(2H-1,2,3-triazol-2-yl)phenyl)methanone] |
| 8 nM | Cc1ccc(-n2nccn2)c(C(=O)N2CCC[C@@H](C)[C@H]2CNc2ncc(Cl)cn2)c1 [Example A147, ((2S,3R)-2-(((5-Chloropyrimidin-2-yl)amino)methyl)-3-methylpiperidin-1-yl)(5-methyl-2-(2H-1,2,3-triazol-2-yl)phenyl)methanone] |
| 1 nM | Cc1ccc(-n2nccn2)c(C(=O)N2CCC[C@@H](C)[C@H]2CNc2ncc(Cl)cc2F)c1 [Example A173, ((2S,3R)-2-(((5-Chloro-3-fluoropyridin-2-yl)amino)methyl)-3-methylpiperidin-1-yl)(5-methyl-2-(2H-1,2,3-triazol-2-yl)phenyl)methanone] |
| 4 nM | Cc1ccc(-n2nccn2)c(C(=O)N2CCC[C@@H](C)[C@H]2CNc2ccc(Cl)cn2)n1 [Example A178, ((2S,3R)-2-(((5-Chloropyridin-2-yl)amino)methyl)-3-methylpiperidin-1-yl)(6-methyl-3-(2H-1,2,3-triazol-2-yl)pyridin-2-yl)methanone] |
| 5 nM | Cc1ccc(-c2cccnn2)c(C(=O)N2CCC[C@@H](C)[C@H]2CNc2ncc(C(F)(F)F)cn2)c1 [Example A198, ((2S,3R)-3-Methyl-2-(((5-(trifluoromethyl)pyrimidin-2-yl)amino)methyl)piperidin-1-yl)(5-methyl-2-(pyridazin-3-yl)phenyl)methanone] |
| 5 nM | Cc1ccc(-n2nccn2)c(C(=O)N2CCC[C@@H](C)[C@H]2CNc2ncc3ccccc3n2)c1 [Example A216, ((2S,3R)-3-Methyl-2-((quinazolin-2-ylamino)methyl)piperidin-1-yl)(5-methyl-2-(2H-1,2,3-triazol-2-yl)phenyl)methanone] |
| 5 nM | C[C@@H]1CCCN(C(=O)c2cccc(F)c2-n2nccn2)[C@@H]1CNc1ncc(C(F)(F)F)cn1 [Example A256, (3-Fluoro-2-(2H-1,2,3-triazol-2-yl)phenyl)((2S,3R)-3-methyl-2-(((5-(trifluoromethyl)pyrimidin-2-yl)amino)methyl)piperidin-1-yl)methanone] |
| 4 nM | Cc1cccc(C(=O)N2CCC[C@@H](C)[C@H]2CNc2ccc(C(F)(F)F)cn2)c1-n1nccn1 [Example A266, ((2S,3R)-3-Methyl-2-(((5-(trifluoromethyl)pyridin-2-yl)amino)methyl)piperidin-1-yl)(3-methyl-2-(2H-1,2,3-triazol-2-yl)phenyl)methanone] |

From US9440982B2 (Eolas Therapeutics, Inc., priority 2012, dated 2016)
